This assay concerns the target B-Raf V600E (Homo sapiens (Human), UniProt P15056, V600E). Briefly: B-Raf V600E/Mek Amplified Luminescence Proximity Homogeneous Assay (B-Raf V600E biochemical). To be noted: IC50, B-Raf V600E/Mek Alpha Screen; read-out: BRAF V600E biochemical. The method, then: The plate was incubated for 60 minutes at room temperature.
The B-Raf kinase activity reaction was started by the addition of 10 μl per well of 2×ATP (10 μM) diluted in assay buffer. After 3 hours, the reactions were stopped with the addition of 10 μl of stop reagent (60 mM EDTA, 0.01% Tween20). Phosphorylated product was measured using a rabbit anti-p-MEK (Cell Signaling, #9121) antibody and the Alpha Screen IgG (ProteinA) detection Kit (PerkinElmer #6760617R), by the addition of 30 μl to the well of a mixture of the antibody (1:2000 dilution) and detection beads (1:1000 dilution of both beads) in bead buffer (50 mM Tris, pH 7.5, 0.01% Tween20). The additions were carried out under dark conditions to protect the detection beads from light. A lid was placed on top of the plate and the plate was incubated for 1 hour at room temperature. The luminescence was read on a PerkinElmer Envision instrument. The concentration of each compound for 50% inhibition (IC50) was calculated by non-linear regression using XL Fit data analysis software.

By UniProt entry, the sequences of proteins in these tests, tags left out.
UniProt P15056, whole entry V600E: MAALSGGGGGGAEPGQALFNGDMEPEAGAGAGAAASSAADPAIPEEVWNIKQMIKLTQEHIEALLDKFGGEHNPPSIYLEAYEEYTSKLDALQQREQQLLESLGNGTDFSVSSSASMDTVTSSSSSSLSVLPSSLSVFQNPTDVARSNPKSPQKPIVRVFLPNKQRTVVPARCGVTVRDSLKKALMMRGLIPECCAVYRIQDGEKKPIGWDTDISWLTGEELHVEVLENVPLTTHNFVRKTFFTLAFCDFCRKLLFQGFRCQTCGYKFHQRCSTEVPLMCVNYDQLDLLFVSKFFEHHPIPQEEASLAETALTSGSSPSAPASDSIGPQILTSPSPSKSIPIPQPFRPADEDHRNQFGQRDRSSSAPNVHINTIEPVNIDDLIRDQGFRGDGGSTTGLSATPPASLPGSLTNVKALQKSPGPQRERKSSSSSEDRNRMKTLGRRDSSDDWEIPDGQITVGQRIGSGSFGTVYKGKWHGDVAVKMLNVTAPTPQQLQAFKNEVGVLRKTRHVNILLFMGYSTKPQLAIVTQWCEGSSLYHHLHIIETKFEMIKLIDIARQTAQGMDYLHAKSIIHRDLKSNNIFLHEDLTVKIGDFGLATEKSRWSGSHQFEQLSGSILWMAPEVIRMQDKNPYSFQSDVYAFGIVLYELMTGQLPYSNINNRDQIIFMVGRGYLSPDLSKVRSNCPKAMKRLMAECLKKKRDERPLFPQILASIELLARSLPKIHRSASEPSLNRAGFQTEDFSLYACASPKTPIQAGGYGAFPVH

Consider `COC(=O)N[C@@H](C)CNc1nccc(-c2cn(C(C)C)nc2-c2cc(F)cc(NS(=O)(=O)C3CC3)c2F)n1` [Compound 24, methyl N-[(2S)-1-({4-[3-(3-cyclopropanesulfonamido-2,5-difluorophenyl)-1-(propan-2-yl)-1H-pyrazol-4-yl]pyrimidin-2-yl}amino)propan-2-yl]carbamate], for which the IC50 was found to be 23 nM.

The values above are taken from US9593100B2, “Compounds and compositions as protein kinase inhibitors” (Array BioPharma, Inc., priority 2009, dated 2017).
